Source: patent publication EP4840895A1, “PEGYLATED BORON-CONTAINING TRYPTOPHAN DERIVATIVE AND PREPARATION METHOD THEREFOR, PHARMACEUTICAL COMPOSITION CONTAINING PEGYLATED BORON-CONTAINING TRYPTOPHAN DERIVATIVE, AND USE THEREOF” (dated 2026)

Key:
[1] = size-distribution measurement (dynamic light scattering, laser scattering particle size analyzer); settings: 1 mg dissolved in CH3CH2OH, ultrasonic vibration 5 min
Protocol: The samples TB-6-BTMe, TB-6-BT-PEG200, TB-6-BT-PEG600, PEG200 and PEG600 were each taken 1 mg for dissolving in CH3CH2OH in a vial (3 mL) followed by ultrasonic vibration for 5 min. The particle size measurement was carried out using Zetasizer Ultra-Red mediating through a laser irradiation to extract the information of the diffraction patterns. The data was manipulated by numerical analysis through the software of manufacturer. The size distribution was graphed using GraphPad Prism 5 software.

[2] = aqueous solubility comparison (Table 1)

Row | average diameter (ID) [1] | solubility ([2]; EtOH + H2O (15% EtOH)) | solubility ([2]; 40 µL EtOH +100 µL H2O (30% EtOH)) | Compound
1 | 78.7 nm |  |  | COC(=O)C(Cc1cn(C(=O)OC(C)(C)C)c2cc(B3OC(C)(C)C(C)(C)O3)ccc12)N(C(=O)OC(C)(C)C)C(=O)OC(C)(C)C (stereo not shown)
2 |  | insoluble |  | CC(C)(C)OC(=O)N(C(=O)OC(C)(C)C)C(Cc1cn(C(=O)OC(C)(C)C)c2cc(B3OC(C)(C)C(C)(C)O3)ccc12)C(=O)O (stereo not shown)
3 |  | insoluble | insoluble | boronophenyl alanine
